SMILES strings stand for the structures.

The chains behind the UniProt entries cited, without tags or fusion partners. Where a name states a change or a piece, a line headed by the entry shows the natural chain unless it says otherwise.
UniProt P45984: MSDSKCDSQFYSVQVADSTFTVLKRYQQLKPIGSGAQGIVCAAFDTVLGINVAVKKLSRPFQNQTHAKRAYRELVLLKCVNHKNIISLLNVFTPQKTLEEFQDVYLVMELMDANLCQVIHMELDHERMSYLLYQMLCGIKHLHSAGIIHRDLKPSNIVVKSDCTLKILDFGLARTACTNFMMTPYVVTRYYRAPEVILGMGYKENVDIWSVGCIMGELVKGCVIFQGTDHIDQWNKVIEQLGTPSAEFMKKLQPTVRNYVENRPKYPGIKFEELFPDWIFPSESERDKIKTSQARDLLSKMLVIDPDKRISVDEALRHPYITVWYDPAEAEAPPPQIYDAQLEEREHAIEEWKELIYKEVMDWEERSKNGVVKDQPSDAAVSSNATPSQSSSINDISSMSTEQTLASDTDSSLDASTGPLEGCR
UniProt P53779: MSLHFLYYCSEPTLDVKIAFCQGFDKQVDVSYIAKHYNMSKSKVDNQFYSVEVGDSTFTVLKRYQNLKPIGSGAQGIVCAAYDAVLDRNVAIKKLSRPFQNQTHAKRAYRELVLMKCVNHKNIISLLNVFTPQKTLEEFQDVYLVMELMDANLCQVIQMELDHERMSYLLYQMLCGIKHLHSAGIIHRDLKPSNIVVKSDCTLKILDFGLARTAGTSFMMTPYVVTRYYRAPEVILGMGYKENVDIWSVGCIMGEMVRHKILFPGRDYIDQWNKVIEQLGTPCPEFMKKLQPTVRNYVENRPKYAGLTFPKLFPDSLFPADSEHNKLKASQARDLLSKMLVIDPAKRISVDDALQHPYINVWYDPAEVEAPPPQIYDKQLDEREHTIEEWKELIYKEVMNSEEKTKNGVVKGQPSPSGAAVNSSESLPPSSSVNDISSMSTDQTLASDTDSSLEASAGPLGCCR

Test [1] has as its target Mitogen-activated protein kinase 9 (Homo sapiens, UniProt P45984). The experiment in a line: Inhibition of JNK2 (unknown origin) assessed as incorporation of 33P-ATP.
For test [2], the target named is Mitogen-activated protein kinase 10 (Homo sapiens, UniProt P53779). The experiment in a line: Inhibition of human JNK3 incubated for 40 mins in presence of ATP and [gamma33P-ATP] by scintillation counting method.

A word on the IC50: it is the concentration that inhibits the measured activity by half. Consider `NC(=O)N1Cc2nc(-c3ccc(Cl)c(Cl)c3)n(-c3ccnc(N[C@@H]4CCN(C(=O)C5CC5)C4)n3)c2C1`, for which the values for the half-inhibitory concentration (IC50) in test [1] and in test [2] were 230 nM and 3 nM, respectively.

The values are drawn from ChEMBL document CHEMBL5385844, “Discovery of novel imidazole chemotypes as isoform-selective JNK3 inhibitors for the treatment of Alzheimer's disease” (Eur J Med Chem, 2023).
